# Biological target: Serine/threonine-protein kinase TBK1 (Homo sapiens, UniProt Q9UHD2)
# Protein sequences, listed by entry. Tags and fused reporters are not part of them. Lines headed by an entry give the natural chain unless they say otherwise; changes in a name come on top.
# UniProt Q9UHD2: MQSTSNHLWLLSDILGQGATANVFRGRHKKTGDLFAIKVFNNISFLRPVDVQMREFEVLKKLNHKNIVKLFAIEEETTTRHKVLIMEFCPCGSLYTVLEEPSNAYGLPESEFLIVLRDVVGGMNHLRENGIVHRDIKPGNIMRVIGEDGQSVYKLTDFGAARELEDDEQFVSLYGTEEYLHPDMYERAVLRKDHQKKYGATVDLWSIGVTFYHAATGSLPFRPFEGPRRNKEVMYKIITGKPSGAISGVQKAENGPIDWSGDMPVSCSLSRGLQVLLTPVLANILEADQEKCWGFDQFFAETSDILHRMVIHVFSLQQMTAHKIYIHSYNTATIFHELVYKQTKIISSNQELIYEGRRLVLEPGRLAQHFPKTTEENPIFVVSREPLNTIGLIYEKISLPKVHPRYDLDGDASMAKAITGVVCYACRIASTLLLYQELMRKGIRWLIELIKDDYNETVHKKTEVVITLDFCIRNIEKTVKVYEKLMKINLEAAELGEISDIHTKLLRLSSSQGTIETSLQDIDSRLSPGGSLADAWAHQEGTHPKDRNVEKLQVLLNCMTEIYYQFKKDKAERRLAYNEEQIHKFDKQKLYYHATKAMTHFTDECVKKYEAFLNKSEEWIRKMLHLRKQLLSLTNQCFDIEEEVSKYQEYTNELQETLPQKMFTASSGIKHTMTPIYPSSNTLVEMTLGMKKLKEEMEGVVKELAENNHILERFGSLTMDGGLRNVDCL
# Assay: Time-Resolved Fluorescence-based Lanthascreen Assay: Kinase inhibition assays (10 μL) were performed at 20° C. in 384-well plate format. Compound IC50 values were determined at the apparent Km for ATP (20 μM) based on a radiometric assay (Invitrogen) using 8 or 10 point curves in duplicate. The final reaction conditions contained 400 nM fluorescein-IkBα substrate ([…]), 20 μM ATP, 2 nM or 8 nM IKKε or TBK1 kinase respectively, and 3% DMSO in kinase assay buffer consisting of 50 mM HEPES (pH 7.5), 10 mM MgCl, 1 mM EGTA, 0.01% Brij-35.Compound dilutions were prepared from 10 mM DMSO stocks by dilution into DMSO. Compound dilution series were further diluted in kinase assay buffer to give a 12% DMSO stock, the final concentration in the assay being 3% DMSO.The kinase phosphorylation assay was initiated by the addition of the kinase and the reaction was allowed to proceed for 1 h or 2.5 h for IKKε and TBK-1 kinase respectively.
smiles,measurement,value
CC(C)(N)c1ccc(Nc2nccc(-c3cnc(N4CC[C@H](F)C4)c(C#N)c3)n2)cn1,IC50,< 100 nM

# Reference: ChEMBL document CHEMBL3886918, “Pyrimidine compounds useful in the treatment of diseases mediated by IKKE and/or TBK1 mechanisms” (2016)
